Values of other authors in patent US8865021B2, “Compositions of lipids and cationic peptides” (Camurus AB, priority 2003, dated 2014).

B1: IL-3 (protein, UniProt P08700 20-152, looked up)
Interleukin-3: APMTQTTPLKTSWVNCSNMIDEIITHLKQPPLPLLDFNNLNGEDQDILMENNLRRPNLEAFNRAVKSLQNASAIESILKNLLPCLPLATAAPTRHPIHIKDGDWNEFRRKLTFYLKTLENAQAQQTTLSLAIF
notes: Haematopoietic growth factor
B2: IL-20 (protein, UniProt Q9NYY1 25-176, looked up)
Interleukin-20: LKTLNLGSCVIATNLQEIRNGFSEIRGSVQAKDGNIDIRILRRTESLQDTKPANRCCLLRHLLRLYLDRVFKNYQTPDHYTLRKISSLANSFLTIKKDLRLCHAHMTCHCGEEAMKKYSQILSHFEKLEPQAAVVKALGELDILLQWMEETE
notes: Four alpha helix cytokine ZCYTO10

Conditions: Table 2
In the case of Interferon-alpha 2, the “Isoelectric pH” value is listed as 5.99 pH.
For Thyrotropin alpha, the “Isoelectric pH” value is listed as 8.38 pH.
For Follitropin-alpha, the “Isoelectric pH” value is listed as 8.38 pH.
For Interferon-beta, the “Isoelectric pH” value is given as 8.93 pH.
In the case of IL-2, the “Isoelectric pH” value is listed as 7.05 pH.
In the case of B1, the “Isoelectric pH” value is given as 6.97 pH.
For B2, the “Isoelectric pH” value is given as 8.77 pH.
